The nature of the data set: Accelerated aging of test strips: change in slope of glucose calibration curve (enzyme stability in dry reagent). To be noted: up to 40 days at 50° C.; FIG. 12, 13.

Take “tetramethylammonium salt of the conjugate base of 3-[N-Tris(hydroxymethyl)methylamino]-2-hydroxypropanesulfonic Acid”: the “enzyme stability in dry reagent (slope and intercept on aging)” value is given as “superior to TMA-TES”.

Values taken from US10760111B2, “Reagents for electrochemical test strips” (dated 2020).
